## Cyclic peptide permeability, from CycPeptMPDB

Values of Kelly et al. 2021, doi:10.1021/jacs.0c06115, as listed in CycPeptMPDB.

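The data file gives no further conditions (lipid, pH, time, direction or concentration), and values from different papers need not be comparable. Other peptides of the study may be missing here. Peptides that the database sets to -10, its floor, are left out.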

PAMPA is the parallel artificial membrane permeability assay, which has no cells and reads passive diffusion. Values are log10 P with P in cm/s, so -5 is more permeable than -7.

{"smiles": "CC(=O)N1CCC[C@H]1C(=O)N(C)[C@H](CC(C)C)C(=O)N[C@@H]1C(=O)N[C@H](Cc2ccc(F)c(F)c2)C(=O)N[C@@H](Cc2ccccc2)C(=O)N[C@H](Cc2ccccc2)C(=O)N(C)[C@H](C)C(=O)N[C@@H](CC(C)C)C(=O)N2CCC[C@H]2C(=O)O[C@@H]1C", "PAMPA (log10 cm/s)": "-5.82"}
{"smiles": "CC(=O)N[C@@H]1C(=O)N2CCC[C@H]2C(=O)N(C)[C@H](CC(C)C)C(=O)N[C@@H](CC(C)C)C(=O)N(C)[C@H](CC(C)C)C(=O)N[C@@H](CC(C)C)C(=O)N[C@@H](C)C(=O)N[C@@H](CC(C)C)C(=O)N2CCC[C@@H]2C(=O)O[C@@H]1C", "PAMPA (log10 cm/s)": "-5.86"}
{"smiles": "CC(=O)N1CCC[C@H]1C(=O)N(C)[C@H](CC(C)C)C(=O)N[C@@H]1C(=O)N[C@H](Cc2ccccc2)C(=O)N[C@@H](CC(C)C)C(=O)N[C@H](Cc2cccc3ccccc23)C(=O)N(C)[C@H](C)C(=O)N[C@@H](CC(C)C)C(=O)N2CCC[C@H]2C(=O)O[C@@H]1C", "PAMPA (log10 cm/s)": "-5.99"}
{"smiles": "CC(=O)N[C@@H]1C(=O)N2CCC[C@H]2C(=O)N(C)[C@H](CC(C)C)C(=O)N(C)[C@H](CC(C)C)C(=O)N[C@@H](CC(C)C)C(=O)N[C@H](CC(C)C)C(=O)N[C@H](C)C(=O)N[C@@H](CC(C)C)C(=O)N2CCC[C@@H]2C(=O)O[C@@H]1C", "PAMPA (log10 cm/s)": "-6.18"}
{"smiles": "CC(=O)N1CCC[C@H]1C(=O)N(C)[C@H](CC(C)C)C(=O)N[C@@H]1C(=O)N[C@H](CC(C)C)C(=O)N[C@@H](Cc2ccccc2)C(=O)N[C@H](CC2CCCCC2)C(=O)N(C)[C@H](C)C(=O)N[C@@H](CC(C)C)C(=O)N2CCC[C@H]2C(=O)O[C@@H]1C", "PAMPA (log10 cm/s)": "-5.15"}
{"smiles": "CC[C@H]1NC(=O)[C@@H](NC(=O)[C@@H](CC(C)C)N(C)C(=O)[C@@H]2CCCN2C(C)=O)[C@@H](C)OC(=O)[C@@H]2CCCN2C(=O)[C@H](CC(C)C)NC(=O)[C@@H](C)N(C)C(=O)[C@@H](Cc2ccc(F)cc2)NC(=O)[C@H](Cc2ccc(OC)cc2)NC1=O", "PAMPA (log10 cm/s)": "-5.72"}
{"smiles": "CCC[C@@H]1NC(=O)[C@@H](CC2CCCCC2)NC(=O)[C@@H](NC(=O)[C@@H](CC(C)C)N(C)C(=O)[C@@H]2CCCN2C(C)=O)[C@@H](C)OC(=O)[C@@H]2CCCN2C(=O)[C@H](CC(C)C)NC(=O)[C@@H](C)N(C)C(=O)[C@@H](CC(C)C)NC1=O", "PAMPA (log10 cm/s)": "-5.44"}
{"smiles": "CCC[C@H]1NC(=O)[C@H](Cc2ccccc2)NC(=O)[C@@H](CC2CCCCC2)NC(=O)[C@@H](NC(=O)[C@@H](CC(C)C)N(C)C(=O)[C@@H]2CCCN2C(C)=O)[C@@H](C)OC(=O)[C@@H]2CCCN2C(=O)[C@H](CC(C)C)NC(=O)[C@@H](C)N(C)C1=O", "PAMPA (log10 cm/s)": "-5.33"}
{"smiles": "CC(=O)N[C@@H]1C(=O)N2CCC[C@H]2C(=O)N(C)[C@H](CC(C)C)C(=O)N(C)[C@@H](CC(C)C)C(=O)N[C@@H](CC(C)C)C(=O)N[C@H](CC(C)C)C(=O)N[C@H](C)C(=O)N[C@@H](CC(C)C)C(=O)N2CCC[C@@H]2C(=O)O[C@@H]1C", "PAMPA (log10 cm/s)": "-6.41"}
{"smiles": "CC(=O)N1CCC[C@H]1C(=O)N(C)[C@H](CC(C)C)C(=O)N[C@@H]1C(=O)N[C@H](Cc2ccccc2)C(=O)N[C@@H](CCc2ccccc2)C(=O)N[C@H](CC(C)C)C(=O)N(C)[C@H](C)C(=O)N[C@@H](CC(C)C)C(=O)N2CCC[C@H]2C(=O)O[C@@H]1C", "PAMPA (log10 cm/s)": "-5.36"}
{"smiles": "CC[C@@H]1NC(=O)[C@@H](Cc2ccccc2)NC(=O)[C@@H](NC(=O)[C@@H](CC(C)C)N(C)C(=O)[C@@H]2CCCN2C(C)=O)[C@@H](C)OC(=O)[C@@H]2CCCN2C(=O)[C@H](CC(C)C)NC(=O)[C@@H](C)N(C)C(=O)[C@@H](Cc2ccc(F)cc2)NC1=O", "PAMPA (log10 cm/s)": "-6.03"}
{"smiles": "CC[C@H]1NC(=O)[C@H](Cc2ccc(OC)cc2)NC(=O)[C@@H](Cc2ccc(F)c(F)c2)NC(=O)[C@@H](NC(=O)[C@@H](CC(C)C)N(C)C(=O)[C@@H]2CCCN2C(C)=O)[C@@H](C)OC(=O)[C@@H]2CCCN2C(=O)[C@H](CC(C)C)NC(=O)[C@@H](C)N(C)C1=O", "PAMPA (log10 cm/s)": "-5.97"}
{"smiles": "COc1ccc(C[C@@H]2NC(=O)[C@@H](CC3CCCCC3)NC(=O)[C@@H](NC(=O)[C@@H](CC(C)C)N(C)C(=O)[C@@H]3CCCN3C(C)=O)[C@@H](C)OC(=O)[C@@H]3CCCN3C(=O)[C@H](CC(C)C)NC(=O)[C@@H](C)N(C)C(=O)[C@@H](Cc3ccc(F)c(F)c3)NC2=O)cc1", "PAMPA (log10 cm/s)": "-6.66"}
{"smiles": "COc1ccc(C[C@@H]2NC(=O)[C@@H](CC(C)C)NC(=O)[C@@H](NC(=O)[C@@H](CC(C)C)N(C)C(=O)[C@@H]3CCCN3C(C)=O)[C@@H](C)OC(=O)[C@@H]3CCCN3C(=O)[C@H](CC(C)C)NC(=O)[C@@H](C)N(C)C(=O)[C@@H](CC(C)C)NC2=O)cc1", "PAMPA (log10 cm/s)": "-5.86"}
{"smiles": "CC[C@H]1NC(=O)[C@@H](NC(=O)[C@@H](CC(C)C)N(C)C(=O)[C@@H]2CCCN2C(C)=O)[C@@H](C)OC(=O)[C@@H]2CCCN2C(=O)[C@H](CC(C)C)NC(=O)[C@@H](C)N(C)C(=O)[C@@H](Cc2ccccc2)NC(=O)[C@H](Cc2ccc(OC)cc2)NC1=O", "PAMPA (log10 cm/s)": "-5.65"}
{"smiles": "CCC[C@H]1NC(=O)[C@H](Cc2ccc(OC)cc2)NC(=O)[C@@H](CC2CCCCC2)NC(=O)[C@@H](NC(=O)[C@@H](CC(C)C)N(C)C(=O)[C@@H]2CCCN2C(C)=O)[C@@H](C)OC(=O)[C@@H]2CCCN2C(=O)[C@H](CC(C)C)NC(=O)[C@@H](C)N(C)C1=O", "PAMPA (log10 cm/s)": "-5.95"}
{"smiles": "CC(=O)N1CCC[C@H]1C(=O)N[C@@H]1C(=O)N(C)[C@H](CC(C)C)C(=O)N(C)[C@@H](CC(C)C)C(=O)N[C@@H](CC(C)C)C(=O)N(C)[C@H](CC(C)C)C(=O)N(C)[C@H](C)C(=O)N[C@@H](CC(C)C)C(=O)N2CCC[C@@H]2C(=O)O[C@@H]1C", "PAMPA (log10 cm/s)": "-6.01"}
{"smiles": "CCC[C@H]1NC(=O)[C@H](Cc2ccc(F)cc2)NC(=O)[C@@H](CC(C)C)NC(=O)[C@@H](NC(=O)[C@@H](CC(C)C)N(C)C(=O)[C@@H]2CCCN2C(C)=O)[C@@H](C)OC(=O)[C@@H]2CCCN2C(=O)[C@H](CC(C)C)NC(=O)[C@@H](C)N(C)C1=O", "PAMPA (log10 cm/s)": "-5.58"}
{"smiles": "CC(=O)N1CCC[C@H]1C(=O)N(C)[C@H](CC(C)C)C(=O)N[C@@H]1C(=O)N[C@H](Cc2ccc(F)c(F)c2)C(=O)N[C@@H](Cc2ccc(F)cc2)C(=O)N[C@H](Cc2cccc3ccccc23)C(=O)N(C)[C@H](C)C(=O)N[C@@H](CC(C)C)C(=O)N2CCC[C@H]2C(=O)O[C@@H]1C", "PAMPA (log10 cm/s)": "-6.76"}
{"smiles": "CC(=O)N1CCC[C@H]1C(=O)N(C)[C@H](CC(C)C)C(=O)N[C@@H]1C(=O)N[C@H](Cc2ccc(F)cc2)C(=O)N[C@@H](CC(C)C)C(=O)N[C@H](CC(C)C)C(=O)N(C)[C@H](C)C(=O)N[C@@H](CC(C)C)C(=O)N2CCC[C@H]2C(=O)O[C@@H]1C", "PAMPA (log10 cm/s)": "-5.60"}
{"smiles": "CCC[C@H]1NC(=O)[C@H](CC)NC(=O)[C@@H](CC2CCCCC2)NC(=O)[C@@H](NC(=O)[C@@H](CC(C)C)N(C)C(=O)[C@@H]2CCCN2C(C)=O)[C@@H](C)OC(=O)[C@@H]2CCCN2C(=O)[C@H](CC(C)C)NC(=O)[C@@H](C)N(C)C1=O", "PAMPA (log10 cm/s)": "-5.72"}

Again, the 2 entries with the lowest PAMPA:

{"smiles": "CC(=O)N1CCC[C@H]1C(=O)N(C)[C@H](CC(C)C)C(=O)N[C@@H]1C(=O)N[C@H](Cc2ccc(F)c(F)c2)C(=O)N[C@@H](Cc2ccc(F)cc2)C(=O)N[C@H](Cc2cccc3ccccc23)C(=O)N(C)[C@H](C)C(=O)N[C@@H](CC(C)C)C(=O)N2CCC[C@H]2C(=O)O[C@@H]1C", "PAMPA (log10 cm/s)": "-6.76"}
{"smiles": "COc1ccc(C[C@@H]2NC(=O)[C@@H](CC3CCCCC3)NC(=O)[C@@H](NC(=O)[C@@H](CC(C)C)N(C)C(=O)[C@@H]3CCCN3C(C)=O)[C@@H](C)OC(=O)[C@@H]3CCCN3C(=O)[C@H](CC(C)C)NC(=O)[C@@H](C)N(C)C(=O)[C@@H](Cc3ccc(F)c(F)c3)NC2=O)cc1", "PAMPA (log10 cm/s)": "-6.66"}